Results on one molecule are retold here after ChEMBL document CHEMBL1142050, “A two-state homology model of the hERG K+ channel: application to ligand binding” (Bioorg Med Chem Lett, 2005).

Sequences of proteins named here, by UniProt entry; tags and fusion partners are left off. A change or cut given only in a name is not applied to a line headed by its entry.
UniProt Q12809: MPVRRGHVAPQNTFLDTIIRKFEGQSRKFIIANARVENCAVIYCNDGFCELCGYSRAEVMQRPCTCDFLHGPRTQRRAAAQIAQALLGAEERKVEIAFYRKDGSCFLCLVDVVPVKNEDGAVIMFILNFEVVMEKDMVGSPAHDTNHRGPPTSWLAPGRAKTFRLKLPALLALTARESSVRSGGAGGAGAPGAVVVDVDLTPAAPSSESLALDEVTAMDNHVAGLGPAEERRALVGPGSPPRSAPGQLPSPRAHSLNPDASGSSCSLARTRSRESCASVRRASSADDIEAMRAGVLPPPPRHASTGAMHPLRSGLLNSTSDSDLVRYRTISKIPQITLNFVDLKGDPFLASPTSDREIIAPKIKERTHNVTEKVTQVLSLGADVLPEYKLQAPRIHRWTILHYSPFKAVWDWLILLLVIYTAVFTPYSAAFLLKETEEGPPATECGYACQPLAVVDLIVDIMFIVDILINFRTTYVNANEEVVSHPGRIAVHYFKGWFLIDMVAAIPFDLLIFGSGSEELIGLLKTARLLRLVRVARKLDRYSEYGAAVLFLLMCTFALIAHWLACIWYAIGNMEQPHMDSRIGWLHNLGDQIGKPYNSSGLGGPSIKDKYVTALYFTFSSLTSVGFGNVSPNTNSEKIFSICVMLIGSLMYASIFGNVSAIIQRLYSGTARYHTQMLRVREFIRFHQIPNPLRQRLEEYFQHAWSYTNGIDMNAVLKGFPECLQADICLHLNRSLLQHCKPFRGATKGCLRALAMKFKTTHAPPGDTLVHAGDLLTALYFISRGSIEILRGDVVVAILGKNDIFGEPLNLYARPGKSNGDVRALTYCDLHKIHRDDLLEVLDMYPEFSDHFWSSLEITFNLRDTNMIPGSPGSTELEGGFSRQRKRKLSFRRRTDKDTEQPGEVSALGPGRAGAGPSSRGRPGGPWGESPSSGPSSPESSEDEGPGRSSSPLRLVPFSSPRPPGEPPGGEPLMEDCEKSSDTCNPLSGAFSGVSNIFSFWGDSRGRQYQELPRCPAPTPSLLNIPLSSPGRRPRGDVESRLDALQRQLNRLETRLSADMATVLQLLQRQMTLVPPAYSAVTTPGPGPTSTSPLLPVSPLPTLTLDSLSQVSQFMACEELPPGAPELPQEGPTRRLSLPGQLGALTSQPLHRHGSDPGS

The test deals with Voltage-gated inwardly rectifying potassium channel KCNH2 (Homo sapiens, UniProt Q12809).

Molecule `O=C1Cc2cc(CCN3CCN(c4nsc5ccccc45)CC3)c(Cl)cc2N1` [ZIPRASIDONE] gave an IC50 of 151 nM.
